Data on one compound can be found in ChEMBL document CHEMBL5614367, “Hydroxamic acid hybrids: Histone deacetylase inhibitors with anticancer therapeutic potency” (Eur J Med Chem, 2023).

This assay addresses T1, Protein deacetylase HDAC6 (Homo sapiens) (UniProt Q9UBN7).
T1 sequence (whole entry): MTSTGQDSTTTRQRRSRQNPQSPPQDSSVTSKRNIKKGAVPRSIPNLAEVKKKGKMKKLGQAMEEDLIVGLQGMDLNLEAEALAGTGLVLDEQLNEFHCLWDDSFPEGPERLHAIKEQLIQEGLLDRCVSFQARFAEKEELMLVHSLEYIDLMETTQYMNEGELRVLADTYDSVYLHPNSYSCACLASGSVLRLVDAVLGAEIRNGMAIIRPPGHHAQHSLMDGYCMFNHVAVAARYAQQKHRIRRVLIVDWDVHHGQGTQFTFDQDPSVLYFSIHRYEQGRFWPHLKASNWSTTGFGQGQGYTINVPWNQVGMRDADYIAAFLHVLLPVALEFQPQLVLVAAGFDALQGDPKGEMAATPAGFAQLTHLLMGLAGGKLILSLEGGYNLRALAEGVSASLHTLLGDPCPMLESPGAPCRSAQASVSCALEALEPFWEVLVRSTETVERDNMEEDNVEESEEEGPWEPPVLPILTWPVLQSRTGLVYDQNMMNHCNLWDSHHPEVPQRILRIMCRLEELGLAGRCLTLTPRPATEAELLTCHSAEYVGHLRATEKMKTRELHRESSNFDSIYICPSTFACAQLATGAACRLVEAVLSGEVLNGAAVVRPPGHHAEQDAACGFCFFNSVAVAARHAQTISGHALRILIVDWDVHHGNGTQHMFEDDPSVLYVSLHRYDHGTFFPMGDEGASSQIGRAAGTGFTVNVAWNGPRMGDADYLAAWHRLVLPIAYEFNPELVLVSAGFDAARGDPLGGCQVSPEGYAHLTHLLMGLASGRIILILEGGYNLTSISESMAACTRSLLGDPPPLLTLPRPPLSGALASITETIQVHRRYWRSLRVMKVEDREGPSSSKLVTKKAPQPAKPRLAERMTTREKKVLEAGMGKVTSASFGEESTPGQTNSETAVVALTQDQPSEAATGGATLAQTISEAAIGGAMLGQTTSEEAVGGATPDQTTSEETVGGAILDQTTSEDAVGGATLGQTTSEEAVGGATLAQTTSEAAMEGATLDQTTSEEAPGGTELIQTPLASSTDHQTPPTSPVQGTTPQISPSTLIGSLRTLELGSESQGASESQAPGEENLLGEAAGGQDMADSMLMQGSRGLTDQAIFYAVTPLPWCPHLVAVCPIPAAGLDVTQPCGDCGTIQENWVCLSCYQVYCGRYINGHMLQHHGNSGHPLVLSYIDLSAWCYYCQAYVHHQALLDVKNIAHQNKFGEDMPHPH
Nature of the assay: Potency index, ratio of vorinostat IC50 to test compound IC50 for inhibition of HDAC6 (unknown origin) using tert-butyl (S)-(6-acetamido- 1-((4-methyl-2-oxo-2H-chromen-7-yl)amino)-1-oxohexan-2-yl) carbamate (Boc-Lys(acetyl)-AMC) as substrate pretreated for 5 mins followed by substrate addition and measured after 30 mins by fluorescence based microplate reader analysis. The following applies: time 35.0 min.

Each structure is given as a SMILES string.

For `O=C(CCCCCCC(=O)Nc1nc2ccc(OC(F)(F)F)cc2s1)NO`, the Ratio IC50 is 6.5.
